Here are results for 1 compound from PubChem BioAssay (Tox21).

Amino acid sequences for entries named in this document (tags omitted).
UniProt P28223, whole entry, looked up: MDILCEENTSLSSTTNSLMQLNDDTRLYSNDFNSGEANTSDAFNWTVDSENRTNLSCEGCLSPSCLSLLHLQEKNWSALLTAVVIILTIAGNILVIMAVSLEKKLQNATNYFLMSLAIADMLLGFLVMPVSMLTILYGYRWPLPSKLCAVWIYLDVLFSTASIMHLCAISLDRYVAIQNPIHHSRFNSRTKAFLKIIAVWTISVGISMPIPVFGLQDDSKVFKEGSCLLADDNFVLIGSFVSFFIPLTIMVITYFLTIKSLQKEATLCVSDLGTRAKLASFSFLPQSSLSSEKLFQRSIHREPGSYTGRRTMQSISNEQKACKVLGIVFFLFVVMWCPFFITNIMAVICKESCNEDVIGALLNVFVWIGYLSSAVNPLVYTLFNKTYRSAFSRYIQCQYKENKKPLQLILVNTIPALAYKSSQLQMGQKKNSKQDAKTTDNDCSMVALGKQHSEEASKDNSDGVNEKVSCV

The entries are a selection whose mix differs from that of the whole data set. Inconclusive results are not listed. Some compounds were tested as several samples or in several runs, with calls that do not always agree. The source made the active and inactive calls. Calls follow the shape of the full dose curve.

Assay [1] addresses 5-hydroxytryptamine receptor 2A (Homo sapiens) (UniProt P28223). As to the kind of experiment: 5-hydroxytryptamine receptor 2A (HTR2A) small molecule antagonists, cell-based qHTS assay (AID 1963586). Also: nearly all actives have a fitted effect of over 45% in size. Conditions: HTR2A-CHO cells, DOI-induced calcium flux, fluorescence. From the text: National Center for Advancing Translational Sciences [NCATS]
Division of Preclinical Innovation [DPI]
U.S. Environmental Protection Agency [EPA]
National Institutes of Environmental Health Sciences [NIEHS]
National Toxicology Program [NTP]
U.S. Food and Drug Administration [FDA]
The HTR2A receptor is a subtype of the 5-HT2 receptor that belongs to the serotonin receptor family and is a G protein-coupled receptor (GPCR). The HTR2A-CHO cell line stably expressing human 5-hydroxytryptamine receptor 2A (HTR2A) can be used for screening antagonists of interactions between 5-HT2 and its ligands. The HTR2A-CHO calcium flux assay is a homogeneous fluorescence-based assay for detecting the intracellular calcium level using FDSS kinetic plate reader system.
Tox21 Assay Protocol Summary:
HTR2A-CHO cells were dispensed at 2000 cells/3uL/well in 1536-well black-clear bottom plates using a Multidrop Dispenser. After the assay plates were incubated at a 37 C/5% CO2 incubator for 18 h, 3 uL of Dye Loading Buffer was transferred to the assay plate by a Flying Reagent Dispenser. The assay plates were incubated at 37 C for 1h. For antagonist mode, 23 nL of compounds dissolved in DMSO, positive controls or DMSO only was transferred to the assay plate by a pin tool. […] The fluorescence intensity in the plates was measured using FDSS 7000EX kinetic plate reader for 3 min at 1 sec intervals.

Assay [2] has the same target. In words: 5-hydroxytryptamine receptor 2A (HTR2A) small molecule agonists, cell-based qHTS assay (AID 1963587). Also: nearly all actives have a fitted effect of over 30% in size. Conditions: HTR2A-CHO cells, calcium flux fluorescence, agonist mode. The essentials: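 Kinetic calcium-flux fluorescence (2 min, 1 sec intervals) after compound addition in agonist mode. HTR2A-CHO cells were cultured 18 h, then dye-loaded 1 h at 37 C.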
Potency is read from the fitted curve at half-maximal effect.

With `CCc1nc(N)nc(N)c1-c1ccc(Cl)cc1`, the values for the Potency in assay [1] and in assay [2] were active: 38.1 µM and active: 55.8 µM, respectively.
